Patent US10098870B2 (JENKEM TECHNOLOGY CO., LTD. (BEIJING), priority 2013, dated 2018)

Tests used:
[1] = Body weight, survival and tolerance of mice bearing A549 (Example 10); settings: 6 animals per group;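 further: nude mice, each given 1.0×10^7 A549 tumor cells in the right shoulder region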
[2] = Body weight, survival and tolerance of mice bearing plc/prf/5 (Example 6); type: in vivo, nude mouse; settings: for N, number of surviving animals after completion of the treatment: 6 animals per group
From the text: Wherein QW×4W represents intravenous injection once a week for 4 weeks, BIW×4W represents intravenous injection […] for 4 weeks, the same below. (2) Experimental Results

[3] = Body weight, survival and tolerance of mice bearing Calu-6 (Example 9); settings: 6 animals per group;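 further: nude mice bearing Calu-6 tumours, established by implanting 5.0×10^6 cells at the right shoulder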
[4] = Body weight, survival and tolerance of mice bearing H460 (Example 8); settings: 6 animals per group
[5] = Body weight, survival and tolerance of mice bearing Hep3B (Example 7); type: in vivo, mouse; settings: for N, number of surviving animals after completion of the treatment: 6 animals per group

With “monomethoxy polyethylene glycol (20K)-glutamic acid dipeptide-rapamycin conjugate [LPR-2]” the “N, number of surviving animals after completion of the treatment” value (from here on “N, number of surviving animals”) ([1]; 30 mg/kg i.v. BIW×4W) was 6, the “N, number of surviving animals” value ([1]; 45 mg/kg i.v. QW×4W) was 6 and the “N, number of surviving animals” value ([2]; 30 mg/kg i.v. BIW×4W) was 6. The “N, number of surviving animals” value ([2]; 45 mg/kg i.v. QW×4W) was 6, the “toxicity / tolerance (in words)” value ([2]; 5-FU 25 mg/kg, LPR-2 30 and 45 mg/kg) was “No abnormality; also recorded: a good tolerance and no death of animals occurred” and the “N, number of surviving animals” value ([3]; 30 mg/kg i.v. BIW×4W) was 6. For the same substance, the “N, number of surviving animals” value ([3]; 45 mg/kg i.v. QW×4W) was 6, the “N, number of surviving animals” value ([4]; 30 mg/kg i.v. BIW×3W) was 6 and the “N, number of surviving animals” value ([4]; 45 mg/kg i.v. QW×3W) was 6. The “N, number of surviving animals” value ([5]; 30 mg/kg i.v. BIW×4W) was 6, the “N, number of surviving animals” value ([5]; 45 mg/kg i.v. QW×4W) was 6 and the “toxicity / tolerance (in words)” value ([5]; 5-FU 15 mg/kg, LPR-2 30 and 45 mg/kg) was “a good tolerance and no death of animals occurred”.

“Also recorded” adds a separate entry of the source.
